Measurements reported in PMC11182288, “Effects of Netarsudil-Family Rho Kinase Inhibitors on Human Trabecular Meshwork Cell Contractility and Actin Remodeling Using a Bioengineered ECM Hydrogel” (Frontiers in Ophthalmology, 2022).

The chains behind the UniProt entries cited, without tags or fusion partners. Where a name states a change or a piece, a line headed by the entry shows the natural chain unless it says otherwise.
UniProt O75116: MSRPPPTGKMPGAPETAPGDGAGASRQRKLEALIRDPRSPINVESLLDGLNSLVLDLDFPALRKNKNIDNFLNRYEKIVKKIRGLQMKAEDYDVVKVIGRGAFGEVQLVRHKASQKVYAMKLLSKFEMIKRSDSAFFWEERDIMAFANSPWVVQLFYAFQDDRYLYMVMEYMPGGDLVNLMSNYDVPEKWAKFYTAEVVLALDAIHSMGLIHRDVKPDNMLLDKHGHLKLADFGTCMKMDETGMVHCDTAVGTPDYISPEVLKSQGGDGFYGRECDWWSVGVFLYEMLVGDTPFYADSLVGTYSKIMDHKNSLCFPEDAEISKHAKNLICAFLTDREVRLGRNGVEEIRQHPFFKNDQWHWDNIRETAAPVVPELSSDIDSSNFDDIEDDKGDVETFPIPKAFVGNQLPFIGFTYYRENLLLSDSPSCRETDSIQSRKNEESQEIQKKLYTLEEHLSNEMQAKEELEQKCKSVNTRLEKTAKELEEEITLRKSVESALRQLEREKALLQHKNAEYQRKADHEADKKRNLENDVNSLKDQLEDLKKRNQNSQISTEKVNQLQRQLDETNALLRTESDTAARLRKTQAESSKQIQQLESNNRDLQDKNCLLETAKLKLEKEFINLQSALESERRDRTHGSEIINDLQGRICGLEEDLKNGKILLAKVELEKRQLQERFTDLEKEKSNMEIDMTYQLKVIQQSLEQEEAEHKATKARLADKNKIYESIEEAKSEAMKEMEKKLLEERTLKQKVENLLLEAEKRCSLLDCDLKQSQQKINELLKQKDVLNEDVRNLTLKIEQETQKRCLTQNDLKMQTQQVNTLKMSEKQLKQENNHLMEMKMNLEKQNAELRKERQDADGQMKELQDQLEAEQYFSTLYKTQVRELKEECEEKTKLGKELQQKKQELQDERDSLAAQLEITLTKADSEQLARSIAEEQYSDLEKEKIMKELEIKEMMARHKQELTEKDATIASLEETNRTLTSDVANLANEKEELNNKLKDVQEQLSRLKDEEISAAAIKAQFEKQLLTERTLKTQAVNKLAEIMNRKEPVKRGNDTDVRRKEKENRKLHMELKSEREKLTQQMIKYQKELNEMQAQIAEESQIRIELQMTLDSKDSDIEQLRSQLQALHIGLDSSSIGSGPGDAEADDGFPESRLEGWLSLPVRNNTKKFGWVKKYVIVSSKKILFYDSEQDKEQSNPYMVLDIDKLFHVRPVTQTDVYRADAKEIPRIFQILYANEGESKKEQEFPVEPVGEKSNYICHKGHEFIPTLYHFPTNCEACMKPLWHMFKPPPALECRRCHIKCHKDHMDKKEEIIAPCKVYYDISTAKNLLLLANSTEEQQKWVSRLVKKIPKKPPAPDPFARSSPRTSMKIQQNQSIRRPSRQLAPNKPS

Key:
[1] = system: HTM cell-encapsulated ECM hydrogels; test: HTM hydrogel contraction analysis after TGFβ2 induction and ROCKi rescue; assay type: cell-based, human; conditions: 240 h
Procedure: HTM cells (1.0 × 10^6 cells/ml) were thoroughly mixed with MA-COL (3.6 mg/ml), SH-HA (0.5 mg/ml, 0.025% (w/v) photoinitiator) and SH-ELP (2.5 mg/ml) on ice ( Supplementary Figure 2A ), followed by pipetting 10 μl droplets of the HTM cell-laden hydrogel precursor solution onto polydimethylsiloxane-coated (PDMS; Sylgard 184; Dow Corning) 24-well culture plates ( Supplementary Figure 2B ), according to our established protocols ([32]–[34]). Alternatively, 30 µl droplets of the HTM cell-laden hydrogel precursor solution were pipetted onto Surfasil-coated (Fisher Scientific) 18 × 18-mm square glass coverslips followed by placing a regular 12-mm round glass coverslip onto the hydrogels to facilitate even spreading of the polymer solution. HTM hydrogels were crosslinked by exposure to UV light (OmniCure S1500 UV Spot Curing System; Excelitas Technologies, Mississauga, Ontario, Canada) at 320-500 nm, 2.2 W/cm^2 for 5 s. […]
Longitudinal brightfield images of HTM hydrogels subjected to the different treatments were acquired at 0 d and 10 d with an Eclipse Ti microscope (Nikon Instruments, Melville, NY, USA). Construct area was measured using Fiji software (National Institutes of Health (NIH), Bethesda, MD, USA) and normalized to 0 d followed by normalization to controls.

[2] = system: F-actin stress fibers in hydrogel-encapsulated HTM cells; test: HTM hydrogel immunocytochemistry, F-actin stress fibers; assay type: cell-based, human; conditions: 240 h
Procedure: Alternatively, 30 µl droplets of the HTM cell-laden hydrogel precursor solution were pipetted onto Surfasil-coated (Fisher Scientific) 18 × 18-mm square glass coverslips followed by placing a regular 12-mm round glass coverslip onto the hydrogels to facilitate even spreading of the polymer solution. HTM hydrogels were crosslinked by exposure to UV light (OmniCure S1500 UV Spot Curing System; Excelitas Technologies, Mississauga, Ontario, Canada) at 320-500 nm, 2.2 W/cm^2 for 5 s. The HTM hydrogel-adhered coverslips were removed with fine-tipped tweezers and placed hydrogel-side facing up in PDMS-coated 24-well culture plates ( Supplementary Figure 2C ).
Nuclei were counterstained with 4′,6′-diamidino-2-phenylindole (DAPI; Abcam). Coverslips were mounted with ProLong™ Gold Antifade (Invitrogen) on Superfrost™ microscope slides (Fisher Scientific), and fluorescent images were acquired with a Zeiss LSM 780 confocal microscope (Zeiss, Germany). […] Individual z-stacks consisted of 7 slices with the z-step interval set to […]. Fluorescence signal intensity of F-actin and αSMA were determined using Z-project maximum intensity projections in Fiji (NIH) with image background subtraction.

ROCK2 = biological target: T1, ROCK2 (Homo sapiens, UniProt O75116); test: ROCK2 protein kinase assay (Kinase-Glo Luminescent Kinase Assay); assay type: biochemical
T1 construct: purchased Invitrogen; Thermo Fisher Scientific
Procedure: Dose response analyses were conducted to establish IC50 values, which were converted to Ki values using the Cheng-Prusoff Equation Ki = IC50/(1 + ([ATP]/Km ATP).

Ki (ROCK2): 1.2 ± 0.3 nM
Compound: NC[C@@H](C(=O)Nc1ccc2cnccc2c1)c1ccc(COC(=O)c2ccccc2)cc1 [Compound A]
Relative hydrogel size vs. controls [1]: ~ 78% | Relative F-actin signal fold-change vs. controls [2]: ~ 1.7 fold-change
